Results reported in patent publication US20140127158A1, “COMBINATION THERAPY FOR HEPATITIS C VIRUS INFECTION” (National Health Research Institute, priority 2012, published 2014).

System: HCV genotype 1b replicon
Assay: Inhibitor combination study (combination index, CalcuSyn)
Conditions: at the concentrations used in the combination experiments

Compound: NC(=O)c1ncn([C@@H]2O[C@H](CO)[C@@H](O)[C@H]2O)n1 [Ribavirin, ribavirin, reference compound]
- cytotoxicity: No cytotoxicity was observed
